We go through two compounds from US4571399A, “7-(1-Methyl-5-p-methylbenzoylpyrrole-2-acetamidoethyl)-theophylline with anti-platelet aggregant and broncholytic activity” (Medosan Industrie Biochimiche Riunite S.p.A., priority 1983, dated 1986).

“Also recorded” adds a separate entry of the source. Where two headings read alike, the source gives them in different places.

One data set can be described thus: in vivo. Conditions: mouse.
A short description of the next data set: Solubility. The class given is physicochemical. The conditions noted are these: in dichloromethane, N,N'-dimethylformamide.
For data set [1], the system named is guinea pig tracheal chains (histamine as bronchoconstrictor). As to the kind of experiment: Broncholytic activity in vitro on tracheal chains (Akasu's method), antagonism of histamine. Conditions: summary in words. In kind it is cell-based.
Data set [2] has as its system platelet aggregation induced with ADP (platelet rich plasma). As to the kind of experiment: In vitro anti-platelet aggregant activity (Born's method, ADP-induced aggregation). Conditions: for inhibition at 1 µg/mL / inhibition at 5 µg/mL / inhibition at 10 µg/mL: Rattus norvegicus, Platelet, 0.05 h, 3 min incubation; for inhibition at 1 µg/mL: dose 1 γ/ml; for inhibition at 5 µg/mL: dose 5 γ/ml; for inhibition at 10 µg/mL: dose 10 γ/ml. The class given is cell-based, rat.

Data set [3] is described as follows: Antinflammatory and analgesic effects (no method described). Conditions: summary in words; no data shown.
The subject of the next data set is mouse. Conditions: i.p., literature value; cited from earlier work.
The mark [4] stands for this setting: ADP 7,08 μmol/l, read-out: Inhibition % of platelet aggregation.
[5] abbreviates: read-out: Inhibition % of platelet aggregation, ADP 7,08 μmol/l.

The term LD50 denotes the dose expected to kill half of the subjects tested. High values mean a less toxic substance, low ones a more toxic substance.

On to `Cc1ccc(C(=O)c2ccc(CC(=O)NCCn3cnc4c3c(=O)n(C)c(=O)n4C)n2C)cc1` [compound (1), 7-(1-methyl-5-p-methylbenzoylpyrrole-2-acetamidoethyl)theophylline], for which the LD50 in the data set “in vivo” (ip) came out at 970 mg/kg. In “in vivo” (po), this compound gave a median lethal dose (LD50) of 1400 mg/kg. Further, the Solubility result in the data set “Solubility” is recorded as “soluble in dichloromethane, N,N'-dimethylformamide”. In addition, the broncholytic activity result in data set [1] was “good broncholytic action; also recorded: good broncholytic activity comparable to that of theophylline”. For the same compound, in data set [2] (ADP 2 μmol/l, read-out: Inhibition % of platelet aggregation), the inhibition at 1 µg/mL came out at 30%. In addition, in data set [2] (ADP 5 μmol/l, read-out: Inhibition % of platelet aggregation), the inhibition at 1 µg/mL is 21%. In addition, in data set [2] (setting [4]), the inhibition at 1 µg/mL is 12%, the inhibition at 5 µg/mL was 59% and the inhibition at 10 µg/mL is 90%. The anti-platelet aggregant activity result in data set [2] (summary in words) is listed as “pronounced therapeutically useful anti-platelet aggregant activity”. In addition, in data set [3], the analgesic effect result is “low antinflammatory and analgesic effects”; the antinflammatory effect result is “low antinflammatory and analgesic effects”.

Turning to `CC(=O)Oc1ccccc1C(=O)O` [Aspirin, reference compound], the “DL50 (LD50)” value with mouse is 495 mg/kg. Further, in data set [2] (read-out: Inhibition % of platelet aggregation, ADP 2 μmol/l), the inhibition at 1 µg/mL stood at 29%. The inhibition at 1 µg/mL in data set [2] (read-out: Inhibition % of platelet aggregation, ADP 5 μmol/l) amounted to 19%. In data set [2] (setting [5]), the inhibition at 1 µg/mL worked out at 15%, the inhibition at 5 µg/mL came to 60% and the inhibition at 10 µg/mL worked out at 100%.
